Data on one compound can be found in patent publication US12441743B2, “Spiro aromatic ring compound and use thereof” (Etern Biopharma (Shanghai) Co., Ltd., priority 2018, dated 2025).

The experiment relates to MV4-11 cells. The experiment in a line: MV4-11 cell proliferation inhibition experiment (CellTiter-Glo). The format is cell-based. To be noted: Homo sapiens, MV4-11, 72 h, read-out: Cell proliferation inhibition activity. The protocol:
The number of living cells in the culture was determined by quantitative determination of intracellular ATP using CellTiter-Glo® Luminescent Cell Viability Assay kit.
In the first step, MV4-11 cells were inoculated into 96-well plates with a density of 2500 cells per well and a volume of 100 μL per well. The plates were placed in 37° C., 5% carbon dioxide incubator overnight.
In the second step, cells were treated with compounds. The compounds to be tested were diluted 3 times, and 8 concentration gradients were set up. Each well was added with a certain volume of DMSO or the compound to be tested, and each concentration was tested in 2 replicates, and the final concentration of DMSO was 0.5%. The plates were placed in 37° C., 5% carbon dioxide incubator for 72 h.
In the third step, cell viability of the control groups and the treatment groups was determined using CellTiter-Glo® Luminescent Cell Viability Assay kit (Promega, G7570). Each well was added with 50 uL CellTiter-Glo. The culture was mixed well, and incubated at room temperature for 10 min. Signals were read using EnSpire (Perkin Elmer). Inhibition percentages (%) were calculated by the following formula:
Inhibition percentage (%)=(1−signal value of compound treatment group/signal value of DMSO treatment group)*100.
In general terms: ATP-based viability assays read luminescence as a measure of living cells.

pIC50: −log10 of the molar value.

On to `CC1(N)CCN(c2cnc(-c3cccc(Cl)c3Cl)c(N)n2)CC1` [SHP099, 6-(4-amino-4-methylpiperidine-1-yl)-3-(2,3-dichlorophenyl)pyrazine-2-amine, reference compound], for which the pIC50 is 5.80.
